The target in this assay is TACE enzyme (Homo sapiens, UniProt P78536). Kind of assay: Enzymatic assay for TACE inhibition (fluorescent substrate). In kind it is biochemical. As to conditions: Table 1.

Sequences of proteins named here, by UniProt entry; tags and fusion partners are left off. Residues count along the entry.
UniProt P78536, 215-477: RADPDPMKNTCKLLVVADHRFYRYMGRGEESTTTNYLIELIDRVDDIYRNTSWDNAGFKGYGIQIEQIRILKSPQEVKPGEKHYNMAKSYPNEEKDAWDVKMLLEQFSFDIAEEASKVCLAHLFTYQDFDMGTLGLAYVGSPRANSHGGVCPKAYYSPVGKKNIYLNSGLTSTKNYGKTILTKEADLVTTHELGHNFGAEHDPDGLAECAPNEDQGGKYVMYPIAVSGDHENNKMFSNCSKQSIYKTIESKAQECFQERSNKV

Take `CC#CCOc1ccc(S(=O)(=O)N(C)CC(C(=O)NO)N2CCN(S(C)(=O)=O)CC2)cc1` (stereo not shown) [Example 1, 3-[(4-but-2-ynyloxybenzenesulfonyl)methylamino]-N-hydroxy-2-(4-methanesulfonylpiperazin-1-yl)propionamide]: the IC50 was 87 nM. That is a double-digit nanomolar value.

One may read the IC50 as the point on the concentration scale where inhibition reaches its midpoint. A low value points to greater potency.

These data come from patent US20140275108A1, “NOVEL BENZENESULFONAMIDE COMPOUNDS, METHOD FOR SYNTHESIZING SAME, AND USE THEREOF IN MEDICINE AS WELL AS IN COSMETICS” (GALDERMA RESEARCH & DEVELOPMENT, priority 2013, published 2014).
